{"source": "patent US20220380768A1", "about": "(TALLAC THERAPEUTICS, published 2022)", "data": [{"biological_target": "T1, human CD22 (d1 to d7 domain according to NP_001762.2) (human, UniProt P20273 20-687)", "T1 construct": "domain: d1 to d7 domain; also called human CD22-gly; Siglec-2", "experiment": "SPR; summary table, column 'CD22 KD (nM)'", "units": {"Kd": "nM"}, "values": [{"binder": "TNT84 (antibody, human IgG1, kappa, V domains shown) VH: QVQLQESGPGLVKPSDTLSLTCTVSGFAFSIYDMSWIRQPPGKGLEWIAYISSGGGTTYYNPSLKSRVTISVDTSKNQFSLKLSSVTAADTAVYYCARHSGYGTHWGVLFAYWGRGTLVTVSS VL: EIVLTQSPATLSLSPGERATLSCRASQDIHGYLNWYQQKPGQAPRLLIYYTSILHSGIPARFSGSGPGTDFTLTISSLEPEDFAVYYCQQGNTLPWTFGGGTKLEIKR", "Kd": 2.5}, {"binder": "TNT81 (antibody, human IgG1, kappa, V domains shown) VH: EVQLVESGGGLVQPGGSLRLSCAASGFAFSIYDMSWVRQAPGKGLEWVAYISSGGGTTYYPDTVKGRFTISRDNSKNTLYLQMNSLRAEDTAVYYCARHSGYGTHWGVLFAYWGRGTLVTVSS VL: EIVLTQSPATLSLSPGERATLSCRASQDIHGYLNWYQQKPGQAPRLLIYYTSILHSGIPARFSGSGPGTDFTLTISSLEPEDFAVYYCQQGNTLPWTFGGGTKLEIKR", "Kd": 0.7}]}, {"biological_target": "T1, human CD22 (d1 to d7 domain according …)", "experiment": "SPR", "units": {"Kd": "nM", "koff": "s⁻¹", "kon": "M⁻¹ s⁻¹"}, "values": [{"binder": "TNT70 variant RL1 N92A (antibody, V domains shown) VH: QVQLLESGGGVVQPGGSLRLSCAASGFAFSIYDMNWVRQAPGKGLEWVSAISSGGGTTYYADSVKGRFTISRDNAKNSLYLQMNSLRAEDTAVYYCARHSGYGTHWGVLFAYWGRGTLVTVSS VL: DIQMTQSPSSLSASVGDRVTITCRASQDIHGYLNWYQQKPGKAPKLLIYYTSILHSGVPSRFSGSGSGTDFTLTISSLQPEDFATYFCQQGATLPWTFGQGTKLEIK", "Kd": 0.295, "koff": "4.45e-05", "kon": 151000}, {"binder": "TNT70 variant RL1 N92P (antibody, V domains shown) VH: QVQLLESGGGVVQPGGSLRLSCAASGFAFSIYDMNWVRQAPGKGLEWVSAISSGGGTTYYADSVKGRFTISRDNAKNSLYLQMNSLRAEDTAVYYCARHSGYGTHWGVLFAYWGRGTLVTVSS VL: DIQMTQSPSSLSASVGDRVTITCRASQDIHGYLNWYQQKPGKAPKLLIYYTSILHSGVPSRFSGSGSGTDFTLTISSLQPEDFATYFCQQGPTLPWTFGQGTKLEIK", "Kd": 0.644, "koff": "7.24e-05", "kon": 112000}, {"binder": "TNT70 variant RL1 N92E (antibody, V domains shown) VH: QVQLLESGGGVVQPGGSLRLSCAASGFAFSIYDMNWVRQAPGKGLEWVSAISSGGGTTYYADSVKGRFTISRDNAKNSLYLQMNSLRAEDTAVYYCARHSGYGTHWGVLFAYWGRGTLVTVSS VL: DIQMTQSPSSLSASVGDRVTITCRASQDIHGYLNWYQQKPGKAPKLLIYYTSILHSGVPSRFSGSGSGTDFTLTISSLQPEDFATYFCQQGETLPWTFGQGTKLEIK", "Kd": 0.293, "koff": "4.29e-05", "kon": 147000}, {"binder": "TNT70 variant RL1 N92G (antibody, V domains shown) VH: QVQLLESGGGVVQPGGSLRLSCAASGFAFSIYDMNWVRQAPGKGLEWVSAISSGGGTTYYADSVKGRFTISRDNAKNSLYLQMNSLRAEDTAVYYCARHSGYGTHWGVLFAYWGRGTLVTVSS VL: DIQMTQSPSSLSASVGDRVTITCRASQDIHGYLNWYQQKPGKAPKLLIYYTSILHSGVPSRFSGSGSGTDFTLTISSLQPEDFATYFCQQGGTLPWTFGQGTKLEIK", "Kd": 0.452, "koff": "6.8e-05", "kon": 151000}, {"binder": "TNT70 variant RL1 N92V (antibody, V domains shown) VH: QVQLLESGGGVVQPGGSLRLSCAASGFAFSIYDMNWVRQAPGKGLEWVSAISSGGGTTYYADSVKGRFTISRDNAKNSLYLQMNSLRAEDTAVYYCARHSGYGTHWGVLFAYWGRGTLVTVSS VL: DIQMTQSPSSLSASVGDRVTITCRASQDIHGYLNWYQQKPGKAPKLLIYYTSILHSGVPSRFSGSGSGTDFTLTISSLQPEDFATYFCQQGVTLPWTFGQGTKLEIK", "Kd": 0.573, "koff": "8.32e-05", "kon": 145000}, {"binder": "TNT70 variant RL1 N92W (antibody, V domains shown) VH: QVQLLESGGGVVQPGGSLRLSCAASGFAFSIYDMNWVRQAPGKGLEWVSAISSGGGTTYYADSVKGRFTISRDNAKNSLYLQMNSLRAEDTAVYYCARHSGYGTHWGVLFAYWGRGTLVTVSS VL: DIQMTQSPSSLSASVGDRVTITCRASQDIHGYLNWYQQKPGKAPKLLIYYTSILHSGVPSRFSGSGSGTDFTLTISSLQPEDFATYFCQQGWTLPWTFGQGTKLEIK", "Kd": 0.549, "koff": "7.87e-05", "kon": 143000}, {"binder": "TNT70 variant RL1 N92S (antibody, V domains shown) VH: QVQLLESGGGVVQPGGSLRLSCAASGFAFSIYDMNWVRQAPGKGLEWVSAISSGGGTTYYADSVKGRFTISRDNAKNSLYLQMNSLRAEDTAVYYCARHSGYGTHWGVLFAYWGRGTLVTVSS VL: DIQMTQSPSSLSASVGDRVTITCRASQDIHGYLNWYQQKPGKAPKLLIYYTSILHSGVPSRFSGSGSGTDFTLTISSLQPEDFATYFCQQGSTLPWTFGQGTKLEIK", "Kd": 0.468}, {"binder": "TNT70 variant RL1 N92C (antibody, V domains shown) VH: QVQLLESGGGVVQPGGSLRLSCAASGFAFSIYDMNWVRQAPGKGLEWVSAISSGGGTTYYADSVKGRFTISRDNAKNSLYLQMNSLRAEDTAVYYCARHSGYGTHWGVLFAYWGRGTLVTVSS VL: DIQMTQSPSSLSASVGDRVTITCRASQDIHGYLNWYQQKPGKAPKLLIYYTSILHSGVPSRFSGSGSGTDFTLTISSLQPEDFATYFCQQGCTLPWTFGQGTKLEIK", "Kd": 0.643, "koff": "7.13e-05", "kon": 111000}, {"binder": "TNT70 variant RL1 N92T (antibody, V domains shown) VH: QVQLLESGGGVVQPGGSLRLSCAASGFAFSIYDMNWVRQAPGKGLEWVSAISSGGGTTYYADSVKGRFTISRDNAKNSLYLQMNSLRAEDTAVYYCARHSGYGTHWGVLFAYWGRGTLVTVSS VL: DIQMTQSPSSLSASVGDRVTITCRASQDIHGYLNWYQQKPGKAPKLLIYYTSILHSGVPSRFSGSGSGTDFTLTISSLQPEDFATYFCQQGTTLPWTFGQGTKLEIK", "Kd": 0.529, "koff": "7.85e-05", "kon": 149000}, {"binder": "TNT70 variant RL1 N92H (antibody, V domains shown) VH: QVQLLESGGGVVQPGGSLRLSCAASGFAFSIYDMNWVRQAPGKGLEWVSAISSGGGTTYYADSVKGRFTISRDNAKNSLYLQMNSLRAEDTAVYYCARHSGYGTHWGVLFAYWGRGTLVTVSS VL: DIQMTQSPSSLSASVGDRVTITCRASQDIHGYLNWYQQKPGKAPKLLIYYTSILHSGVPSRFSGSGSGTDFTLTISSLQPEDFATYFCQQGHTLPWTFGQGTKLEIK", "Kd": 0.409, "koff": "6.08e-05", "kon": 149000}, {"binder": "TNT70 variant RL1 N92F (antibody, V domains shown) VH: QVQLLESGGGVVQPGGSLRLSCAASGFAFSIYDMNWVRQAPGKGLEWVSAISSGGGTTYYADSVKGRFTISRDNAKNSLYLQMNSLRAEDTAVYYCARHSGYGTHWGVLFAYWGRGTLVTVSS VL: DIQMTQSPSSLSASVGDRVTITCRASQDIHGYLNWYQQKPGKAPKLLIYYTSILHSGVPSRFSGSGSGTDFTLTISSLQPEDFATYFCQQGFTLPWTFGQGTKLEIK", "Kd": 0.295, "koff": "4.58e-05", "kon": 155000}, {"binder": "TNT70 variant RL1 N92D (antibody, V domains shown) VH: QVQLLESGGGVVQPGGSLRLSCAASGFAFSIYDMNWVRQAPGKGLEWVSAISSGGGTTYYADSVKGRFTISRDNAKNSLYLQMNSLRAEDTAVYYCARHSGYGTHWGVLFAYWGRGTLVTVSS VL: DIQMTQSPSSLSASVGDRVTITCRASQDIHGYLNWYQQKPGKAPKLLIYYTSILHSGVPSRFSGSGSGTDFTLTISSLQPEDFATYFCQQGDTLPWTFGQGTKLEIK", "Kd": 0.346, "koff": "5.05e-05", "kon": 146000}]}, {"biological_target": "T1, human CD22 (d1 to d7 domain according …)", "experiment": "SPR; mAb supernatant captured on protein A chip, human CD22 injected", "procedure": "Binding of humanized anti-CD22 antibodies to human CD22 was measured by surface plasmon resonance (SPR). For assessment of binding by SPR, biotinylated protein A (15 μg/mL) was immobilized to the surface of an NLC chip. 30 μL of mAb supernatant was added to 150 μL of PBS-T and captured over the protein A surface. Serial dilutions of human CD22-gly (300 nM, 3× dilution) were injected over the mAb-coated chips, and binding kinetics were determined. Chips were regenerated using 4:1 v/v of Pierce IgG elution butter/4M NaCl.", "units": {"koff": "s⁻¹", "kon": "M⁻¹ s⁻¹", "Kd": "nM"}, "values": [{"binder": "TNT72 (antibody, human IgG1, kappa, V domains shown) VH: QVQLQESGPGLVKPSDTLSLTCTVSGFAFSIYDMSWIRQPPGKGLEWIAYISSGGGTTYYNPSLKSRVTISVDTSKNQFSLKLSSVTAADTAVYYCARHSGYGTHWGVLFAYWGRGTLVTVSS VL: DIQMTQSPSSLSASVGDRVTITCRASQDIHGYLNWYQQKPGKAPKLLIYYTSILHSGVPSRFSGSGSGTDFTLTISSLQPEDFATYFCQQGNTLPWTFGQGTKLEIKR", "koff": 0.000146, "kon": 223000}, {"binder": "TNT79 (antibody, human IgG1, kappa, V domains shown) VH: EVQLVESGGGLVQPGGSLRLSCAASGFTFSSYEMNWVRQAPGKGLEWVSYISSSGSTIYYADSVKGRFTISRDNAKNSLYLQMNSLRAEDTAVYYCARHSGYGTHWGVLFAYWGRGTLVTVSS VL: DIQMTQSPSSLSASVGDRVTITCRASQSISSYLNWYQQKPGKAPKLLIYAASSLQSGVPSRFSGSGSGTDFTLTISSLQPEDFATYYCQQGNTLPWTFGQGTKLEIKR", "Kd": 23.3}, {"binder": "TNT71 (antibody, human IgG1, kappa, V domains shown) VH: EVQLVESGGGLVQPGGSLRLSCAASGFTFSSYEMNWVRQAPGKGLEWVSYISSSGSTIYYADSVKGRFTISRDNAKNSLYLQMNSLRAEDTAVYYCARHSGYGTHWGVLFAYWGRGTLVTVSS VL: DIQMTQSPSSLSASVGDRVTITCRASQDIHGYLNWYQQKPGKAPKLLIYYTSILHSGVPSRFSGSGSGTDFTLTISSLQPEDFATYFCQQGNTLPWTFGQGTKLEIKR", "koff": 0.00146, "kon": 281000}]}]}
